Assay results published in US20260152484A1, “HETEROCYCLIC COMPOUNDS AS TRIGGERING RECEPTOR EXPRESSED ON MYELOID CELLS 2 AGONISTS” (Vigil Neuroscience, Inc., priority 2021, published 2026).

Chains of the proteins cited; added tags and fusions are not shown. Residues count along the entry.
UniProt Q9NZC2, 19-230 limits assumed: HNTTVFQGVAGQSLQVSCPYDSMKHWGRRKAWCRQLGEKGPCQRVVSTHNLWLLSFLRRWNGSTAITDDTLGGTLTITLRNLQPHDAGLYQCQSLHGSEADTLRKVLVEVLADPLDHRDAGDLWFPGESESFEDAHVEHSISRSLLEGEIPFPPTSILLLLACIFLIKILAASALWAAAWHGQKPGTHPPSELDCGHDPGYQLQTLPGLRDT
UniProt O43914, 22-113 partner limits assumed: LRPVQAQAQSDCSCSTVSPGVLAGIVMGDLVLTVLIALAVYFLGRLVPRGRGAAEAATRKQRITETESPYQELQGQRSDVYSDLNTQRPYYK

Molecular target: human TREM2 (Homo sapiens, UniProt Q9NZC2)
Test: Cellular phosphorylation of Syk (AlphaLisa) in HEK293T-hTREM2 cells, TREM2 agonist potency
Details: read-out: hTREM2 EC50; HEK293 cells expressing human TREM2 and DAP12; pSyk AlphaLisa; Table D-2
Experimental: In Vitro Measurement of Triggering Receptor Expressed on Myeloid Cells 2 Activity Using Cellular Phosphorylation of Spleen Tyrosine Kinase (“Syk”) Assays
Measurement of TREM2 agonist potency was done using a HEK cell line expressing human TREM2 and DAP12 (HEK293T-hTREM2 cells). Binding of small molecules to, and activation of, TREM2 increases the phosphorylation of Syk. The resultant levels of Syk phosphorylation are measured using a commercial AlphaLisa reagent kit. To perform the assay, HEK-hTREM2 cells were plated at 14,000 cells per well in a 384 well plate, in 25 μL of complete growth media and incubated at 37° C., 5% CO2 for 20-24 hours.
Prior to the assay, test compounds were diluted in the 384 well plates in assay buffer and allowed to equilibrate for 30 minutes. Growth media was removed from cell plates by inversion on blotting paper, and 25 μL of test articles in assay buffer was added to cells. Cells were incubated for 45 minutes at room temperature. […] After complete lysis, AlphaLisa reagents were added to the lysate, and fluourescence intensity was measured using a Perkin Elmer Envision plate reader. Intensities were used to generate a standard curve, and % activation was calculated. Curve fitting was performed using Prism v9 software, log(agonist) vs response—variable slope (four parameters), and EC50s were calculated from the curve fit. […]

EC50: 500 to 3000 nM
SMILES: Cc1cc2c(-c3ccc(Cl)cc3)nn(-c3ccnc(OC4CN(C(=O)OC(C)(C)C)C4)c3)c(=O)c2nc1C
